Assay results as given in ChEMBL document CHEMBL1795262, “Pyrazole-based sulfonamide and sulfamides as potent inhibitors of mammalian 15-lipoxygenase” (Bioorg Med Chem Lett, 2011).
pIC50: −log10 of the molar value.

Assays:
[1] = biological target: T1, Polyunsaturated fatty acid lipoxygenase ALOX15 (Oryctolagus cuniculus, UniProt P12530); assay: Inhibition of rabbit 15-LO using linoleic acid by standard colorimetric assay
T1 sequence (P12530 whole entry): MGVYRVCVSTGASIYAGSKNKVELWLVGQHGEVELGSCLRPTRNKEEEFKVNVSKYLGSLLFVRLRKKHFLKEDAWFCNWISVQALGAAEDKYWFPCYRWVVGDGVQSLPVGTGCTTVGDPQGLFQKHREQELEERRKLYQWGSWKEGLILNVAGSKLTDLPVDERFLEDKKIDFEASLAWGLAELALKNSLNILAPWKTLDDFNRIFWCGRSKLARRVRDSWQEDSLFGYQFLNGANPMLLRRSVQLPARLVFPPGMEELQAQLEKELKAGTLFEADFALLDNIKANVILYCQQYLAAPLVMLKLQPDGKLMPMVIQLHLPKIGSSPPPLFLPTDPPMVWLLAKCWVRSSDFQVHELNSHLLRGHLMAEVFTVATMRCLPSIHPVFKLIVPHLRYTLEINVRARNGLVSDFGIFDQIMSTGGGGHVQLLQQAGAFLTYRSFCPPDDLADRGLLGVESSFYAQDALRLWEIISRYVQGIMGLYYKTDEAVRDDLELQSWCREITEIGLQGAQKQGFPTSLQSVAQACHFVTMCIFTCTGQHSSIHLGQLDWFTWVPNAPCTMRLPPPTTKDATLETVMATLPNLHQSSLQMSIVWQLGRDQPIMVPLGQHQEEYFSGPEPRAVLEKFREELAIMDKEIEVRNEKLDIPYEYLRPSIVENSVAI

[2] = biological target: T1, Polyunsaturated fatty acid lipoxygenase ALOX15; assay: Inhibition of rabbit 15-LO using arachidonic acid by standard colorimetric assay

- pIC50 [1]: 8.85
- pIC50 [2]: 8.51
SMILES: CCN([C@@H]1CCN(C(C)c2ccc(F)cc2)C1)S(=O)(=O)NCCc1c(-c2cccs2)n[nH]c1-c1cnccn1 (some centres not stated)
